Data taken from article PMC8011926 (Journal of Medicinal Chemistry, 2020).

Key:
[1] = molecular target: T1, NOP receptor (NOP-RLuc/β-arrestin 2-RGFP) (Homo sapiens, UniProt P41146); assay: NOP/β-arrestin 2 interaction, BRET assay in whole cells; type: cell-based; conditions: Emax of ligand / Emax of N/OFQ(1–13)-NH2; mean ± sem of five experiments in duplicate
T1 construct: expressed in transfected cells; host or cells: HEK293 (whole cells)
Procedure: (§1) For this study, human embryonic kidney (HEK293) cells, permanently co-expressing the different pairs of fusion proteins NOP-RLuc/Gβ1-RGFP and NOP-RLuc/β-arrestin 2-RGFP, and SH-SY5Y cells stably, co-expressing the different pairs of fusion proteins mu-RLuc/Gβ1-RGFP and mu-RLuc/β-arrestin 2-RGFP or delta-RLuc/Gβ1-RGFP and delta-RLuc/β-arrestin 2-RGFP, were used. Cells were prepared and cultured, as described previously.[19],[23] Cells were grown in Dulbecco’s modified Eagle’s medium (DMEM)/HAMS F12 (1:1) supplemented with 10% fetal bovine serum, penicillin G (100 units/mL), streptomycin (100 μg mL^–1), L-glutamine (2 mM), fungizone (1 μg mL^–1), geneticin (G418; 200 μg mL^–1), and hygromycin B (100 μg mL^–1) in a humidified atmosphere of 5% CO2 at 37 °C. For G protein experiments, enriched plasma membrane aliquots from transfected cells were prepared by differential centrifugation; cells were detached with phosphate buffered saline (PBS)/EDTA solution (1 mM, pH 7.4 NaOH), then, after 5 min 500g centrifugation, Dounce-homogenized (30 strokes) in cold homogenization buffer (tris(hydroxymethyl)aminomethane 5 mM, EGTA 1 mM, DTT 1 mM, pH 7.4 HCl) in the presence of sucrose (0.32 M). Three following centrifugations were performed at 10 min 1000g (4 °C), and the supernatants were kept. Two 20 min 24,000g (4 °C) subsequent centrifugations (the second in the absence of sucrose) were performed for separating enriched membranes that, after discarding the supernatant, were kept in ultrapure water at −80 °C.[67] The protein concentration in membrane preparations was determined using the QPRO-BCA kit (Cyanagen Srl, Bologna, IT) and the Ensight (PerkinElmer, Waltham, USA) in the spectrophotometer mode.
Luminescence in membranes was recorded in 96-well untreated white opaque microplates, while in whole cells, it was recorded in 96-well sterile poly-D-lysine-coated white opaque microplates (PerkinElmer, Waltham, MA, USA) using the luminometer Victor 2030 (PerkinElmer, Waltham, MA, USA). For the determination of receptor/G protein interactions, membranes (3 μg of protein) prepared from cells co-expressing NOP (or mu or delta)/RLuc and Gβ1/RGFP were added to wells in DPBS. For the determination of receptor/β-arrestin 2 interactions, cells co-expressing NOP (or mu or delta)/RLuc and β-arrestin 2/RGFP were plated 24 h before the experiment in poly-D-lysine-treated plates (100,000 cells/well). The cells were prepared for the experiment substituting the medium with PBS with MgCl2 (0.5 mM) and CaCl2 (0.9 mM). Coelenterazine at a final concentration of 5 μM was injected 15 min prior to reading the cell plate. Different concentrations of ligands in 20 μL of PBS–BSA 0.01% were added and incubated 5 min before reading luminescence. […] The BRET ratio was measured 15 min after agonist injection. […]
(§2) The pharmacological terminology adopted in this paper is consistent with IUPHAR recommendations.[68] All data are expressed as the mean ± sem of five independent experiments made in duplicate. […] Ligand efficacy was expressed as intrinsic activity (α), calculated as the ratio between the Emax of the ligand and that of the standard agonist. Count per second (CPS) measured for the RGFP and RLuc light emitted using 510(10) and 460(25) filters (PerkinElmer, Waltham, MA), respectively, was used to calculate the BRET ratio. All data are expressed as the stimulated BRET ratio, that is, the ratio between CPS from RGFP and RLuc in the presence of ligands minus the BRET ratio in vehicle-treated wells. […]

[2] = molecular target: T2, NOP receptor (NOP-RLuc/Gβ1-RGFP) (Homo sapiens, UniProt P41146); assay: NOP/G protein interaction, BRET assay in membranes; type: biochemical; conditions: Emax of ligand / Emax of N/OFQ(1–13)-NH2; mean ± sem of five experiments in duplicate
T2 construct: expressed in transfected cells; host or cells: HEK293 (enriched plasma membranes)
Procedure: as §1, with “Two 20 min 24,000g (4 °C) subsequent centrifugations (the second in the absence of sucrose) were performed for separating enriched membranes that, after discarding the supernatant, were kept in ultrapure water at −80 °C.[67]” left out
Luminescence in membranes was recorded in 96-well untreated white opaque microplates, while in whole cells, it was recorded in 96-well sterile poly-D-lysine-coated white opaque microplates (PerkinElmer, Waltham, MA, USA) using the luminometer Victor 2030 (PerkinElmer, Waltham, MA, USA). […] Coelenterazine at a final concentration of 5 μM was injected 15 min prior to reading the cell plate. Different concentrations of ligands in 20 μL of PBS–BSA 0.01% were added and incubated 5 min before reading luminescence. […] The BRET ratio was measured 15 min after agonist injection. […]
as §2

NOP receptor = assay: NOP bias factor, G protein vs β-arrestin 2 (Black–Leff operational model); conditions: ΔΔlog(τ/KA) G protein minus β-arrestin 2; N/OFQ(1–13)-NH2 as standard unbiased ligand; positive = toward G protein; mean of at least five experiments
Source text: The concentration–response curves of each compound were fitted to the Black–Leff operational model, described by Nagi and Pineyro[70] [drawing 3] where [A] is the agonist concentration, the maximal response of the system is given by Em, n is a fitting parameter for the slope, the affinity of the agonist is represented by the equilibrium dissociation constant of the agonist–receptor complex (KA), and the efficacy of the agonist is defined by τ. τ and KA are descriptive parameters of intrinsic efficacy and binding affinity and may be directly obtained by fitting the experimental data to the operational equation and can be expressed as “transduction coefficients” log(τ/KA). The relative efficiency of agonists producing activation of any pathways can thus be quantified with a “normalized” transduction coefficient, namely Δlog(τ/KA). Finally, the bias factors were calculated as difference between Δlog(τ/KA) values for a given agonist between the pathways (G protein and β-arrestin 2) [drawing 4]
Bias factors are expressed as the mean of at least five independent experiments, and CL95% are indicated. […]

Molecule | NOP/β-arrestin 2 α ± sem (intrinsic activity) [1] | NOP/G protein α ± sem (intrinsic activity) [2] | bias factor (CL95%), NOP (NOP receptor)
[AC5C^7]N/OFQ-NH2 (FGGFTG; AC5C at 7; C-terminal amide) [Compound 37] | 1.02 ± 0.03 | – | –
[AC5C^11]N/OFQ-NH2 (FGGFTGARKS; AC5C at 11; C-terminal amide) [Compound 38] | 1.05 ± 0.03 | 1.09 ± 0.04 | –
C[C@H](NC(=O)CNC(=O)[C@@H](NC(=O)[C@H](Cc1c[nH]c2ccccc12)NC(=O)CNC(=O)CNC(=O)[C@@H](N)Cc1ccccc1)[C@@H](C)O)C(=O)N[C@@H](CCCNC(=N)N)C(=O)N[C@@H](CCCCN)C(=O)N[C@@H](CO)C(=O)N[C@@H](C)C(=O)N[C@@H](CCCNC(=N)N)C(=O)N[C@@H](CCCCN)C(N)=O [Compound 24, [Trp^4]N/OFQ(1–13)-NH2] | – | 1.01 ± 0.01 | –
[Aib^7]N/OFQ-NH2 (FGGFTG; Aib at 7; C-terminal amide) [Compound 34] | 0.98 ± 0.05 | – | 0.46 (−0.08–1.01)
C[C@H](NC(=O)CNC(=O)[C@@H](NC(=O)[C@H](Cc1ccccc1)NC(=O)CNC(=O)CNC(=O)[C@@H](N)CC1CCCCC1)[C@@H](C)O)C(=O)N[C@@H](CCCNC(=N)N)C(=O)N[C@@H](CCCCN)C(=O)N[C@@H](CO)C(=O)N[C@@H](C)C(=O)N[C@@H](CCCNC(=N)N)C(=O)N[C@@H](CCCCN)C(N)=O [Compound 22, [Cha^1]N/OFQ(1–13)-NH2] | – | 1.08 ± 0.04 | –
[Aib^11]N/OFQ-NH2 (FGGFTGARKS; Aib at 11; C-terminal amide) [Compound 35] | 0.95 ± 0.03 | 1.07 ± 0.03 | –
[AC3C^7]N/OFQ-NH2 (FGGFTG; AC3C at 7; C-terminal amide) [Compound 36] | 1.01 ± 0.04 | – | –
